Measurements taken from patent US7855196B2 (priority 2005, dated 2010).

Assay: Patient's pain rated on the 11-point numerical pain rating scale (clinical case examples)
Details: Example 2: phantom pain, on gabapentin and fentanyl patches; midazolam 2 mg iv; before 7/10

For `Cc1ncc2n1-c1ccc(Cl)cc1C(c1ccccc1F)=NC2` [midazolam], the “pain level after treatment” value was 0/10.
